The record followed here is patent US20240139156A1, “COMBINATION TREATING PROSTATE CANCER, PHARMACEUTICAL COMPOSITION AND TREATMENT METHOD” (KANGPU BIOPHARMACEUTICALS, LTD., priority 2017, published 2024).

The test system of this test is Vcap cells (androgen receptor (+) prostate cancer cells). The experiment in a line: CTG cell proliferation assay (CellTiter-Glo), compounds alone or in combination. To be noted: for effect of tested compound in combination with the other therapeutic agents (prednisone, Galeterone, Abiraterone acetate, ODM-201): Vcap cell survival, without B001, summary in words. For orientation: Cellular ATP, detected with luciferase, serves as a proxy for viable cell number.

Setting [1] is: 1 μM tested compound in combination with 1 μM Abiraterone acetate.
Where [2] appears, read: 1 μM tested compound in combination with 1 μM B001.
The mark [3] stands for this setting: 1 μM tested compound in combination with 1 μM Galeterone.
Setting [4] is: 1 μM tested compound in combination with 1 μM ODM-201.
Where [5] appears, read: 1 μM tested compound in combination with 1 μM prednisone.
The mark [6] stands for this setting: 10 μM tested compound in combination with 1 μM Abiraterone acetate.
[7] abbreviates: 10 μM tested compound in combination with 1 μM B001.
Setting [8] is: 10 μM tested compound in combination with 1 μM Galeterone.
The mark [9] stands for this setting: 10 μM tested compound in combination with 1 μM ODM-201.
Setting [10] is: 10 μM tested compound in combination with 1 μM prednisone.
Setting [11] is: Homo sapiens, VCaP, 120 h, read-out: Survival rate of Vcap cells.

Consider `[2H]C([2H])([2H])NC(=O)c1ccc(N2C(=S)N(c3ccc(C#N)c(C(F)(F)F)c3)C(=O)C2(C)C)cc1F` [AR1-1], for which the “effect of tested compound in combination with the other therapeutic agents (prednisone, Galeterone, Abiraterone acetate, ODM-201)” value is “did not improve significantly”. Moreover, under setting [1], the “Survival rate of Vcap cells” value is recorded as 71.1%. Further, the “Survival rate of Vcap cells” value under setting [2] was determined as 51.992%. For the same compound, the “Survival rate of Vcap cells” value under setting [3] amounted to 73.8%. Moreover, the “Survival rate of Vcap cells” value under setting [4] stood at 68.4%. Also, the “Survival rate of Vcap cells” value under setting [5] is recorded as 79.9%. Further, under setting [6], the “Survival rate of Vcap cells” value is recorded as 60.6%. Moreover, the “Survival rate of Vcap cells” value under setting [7] is on record as 43.631%. Moreover, the “Survival rate of Vcap cells” value under setting [8] stood at 66.6%. Moreover, the “Survival rate of Vcap cells” value under setting [9] is reported as 64.2%. Besides, the “Survival rate of Vcap cells” value under setting [10] is 62.2%. Besides, under setting [11], the viability at 10 µM was 61.1%.
On to `[2H]C([2H])([2H])NC(=O)c1ccc(N2C(=S)N(c3cnc(C#N)c(C(F)(F)F)c3)C(=O)C23CCC3)cc1F` [AR1-2], for which the “effect of tested compound in combination with the other therapeutic agents (prednisone, Galeterone, Abiraterone acetate, ODM-201)” value was “did not improve significantly”. The “Survival rate of Vcap cells” value under setting [1] amounted to 71.2%. Further, under setting [2], the “Survival rate of Vcap cells” value is given as 55.248%. In addition, the “Survival rate of Vcap cells” value under setting [3] is reported as 76.9%. The “Survival rate of Vcap cells” value under setting [4] was 73.3%. In addition, under setting [5], the “Survival rate of Vcap cells” value turned out to be 78.3%. Under setting [6], the “Survival rate of Vcap cells” value is given as 60.2%. In addition, the “Survival rate of Vcap cells” value under setting [7] is 42.006%. The “Survival rate of Vcap cells” value under setting [8] worked out at 64.1%. Also, the “Survival rate of Vcap cells” value under setting [9] worked out at 63.9%. Besides, the “Survival rate of Vcap cells” value under setting [10] is reported as 59.3%. Under setting [11], the viability at 1 µM is 75.1% and the viability at 10 µM stood at 60.9%.
